From patent publication US11566000B2, “Crystalline form of sofpironium bromide and preparation method thereof” (dated 2023)

Test: Hygroscopic property and stability test of crystalline forms (dynamic vapor sorption: DVS)
[1] = DVS sorption-desorption isotherm 0 to 95% RH, 25° C.
[2] = DVS sorption-desorption isotherm 0 to 95% RH, 25° C., crystalline form after the test
[3] = cycle that humidity is increased from 0% RH to 95% RH, and returned to 0% RH

| Structure (SMILES) | Hygroscopicity (weight change) [1] | crystal transition [2] | crystal transition [3] |
| --- | --- | --- | --- |
| CCOC(=O)C[N@+]1(C)CC[C@@H](OC(=O)[C@](O)(c2ccccc2)C2CCCC2)C1.[Br-] | Not observed (“Not observed” means that the weight increased by 3% or less) | Not observed | crystal transition was not observed |
| CCOC(=O)C[N@@+]1(C)CC[C@@H](OC(=O)[C@](O)(c2ccccc2)C2CCCC2)C1.[Br-] | Not observed (“Not observed” means that the weight increased by 3% or less) | Observed | crystal transition was observed |
